# Experimental data taken from patent publication US20140335050A1, “METHODS, COMPOSITIONS, AND KITS FOR THE TREATMENT OF CANCER” (The General Hospital Corporation, priority 2011, published 2014).
# B1: IFN-β: IFN-β-1a (Avonex) obtained from Biogen-Idec; SEQ ID NO: 1 (protein, listed as Homo sapiens)
# chain: MSYNLLGFLQRSSNFQCQKLLWQLNGRLEYCLKDRMNFDIPEEIKQLQQFQKEDAALTIYEMLQNIFAIFRQDSSSTGWNETIVENLLANVYHQINHLKTVLEEKLEKEDFTRGKLMSSLHLKRYYGRILHYLKAKEYSHCAWTIVRVEILRNFYFINRLTGYLRN
# modifications: (1)..(166) IFN-beta-1a
# Legend:
# Format in all cases: cell-based, human
# [1] = test system: MCF-7 breast cancer cells; test: Surface antibody staining and flow cytometry (MHC Class I/II); conditions: MCF-7
# Experimental: (§1) Intracellular staining and flow cytometric analyses of cytoplasmic Melan-A/MART-1, and gp100 expression were performed as described previously. Cells were fixed with 1% formaldehyde, permeabilized with 0.1% saponin, stained with monoclonal antibodies to melanocyte antigens. Antibodies were obtained with specificity for: Melan-A/MART-1 from Vector Labs (Burlingame, Calif.); gp100/HMB45 from DakoCytomation (Carpinteria, Calif.) and then visualized with goat anti-mouse FITC-conjugated secondary antibody from Invitrogen (Frederick, Md.). The level of EGFP was determined by flow cytometry of unfixed cells washed and resuspended in 1×PBS. Surface staining of MHC Class I was carried out using the antibody W6/32 on cells harvested with Cell Stripper from MediaTech Inc. (Manassas, Va.) and carried out on ice.
# (§2) Cell were seeded at 1×10^6 cells in a T25 flask with 10 ml of media for the 4 day IFN-beta pre-treatments. Cells were then harvested and plated in 24 well plate at 1×10^5 cells per well in 1 ml of media for 3 day treatments.
# (§3) For surface staining of HLA Class I and II antigens, cells were harvested using CellStripper™ from Mediatech (Manassas, Va.). All staining steps were performed on ice. Following a first incubation with antibody to Class I (W6/32) or Class II (L243) for 30 minutes. Stained cells were washed twice with cold PBS and then stained with a goat anti-mouse FITC secondary antibody to allow for quantitative analysis by flow cytometry. For evaluation of cytoplasmic antigens, including Melan-A/MART-1 and gp100, cells were first fixed in paraformaldehyde and permeabilized with saponin as previously described. Staining for cytoplasmic antigens was carried out at room temperature (22° C.).
# [2] = test system: U2-OS osteosarcoma cells; test: as above; conditions: U2-OS
# Experimental: as §1, §2, §3
# [3] = test system: HeLa cervical carcinoma cells; test: as above
# Experimental: as §1, §2, §3
# [4] = test system: Raji B cell lymphoma cells; test: as above
# Experimental: as §1, §2, §3
# [5] = test system: MUX melanoma cell line; test: Antibody staining and flow cytometry (intracellular Melan-A/MART-1, gp100, TRP-2; surface MHC Class I)
# Experimental: (§4) Cells were fixed with 1% formaldehyde, permeabilized with 0.1% saponin, stained with monoclonal antibodies to melanocyte antigens. Antibodies were obtained with specificity for: MART-1 from Vector Labs (Burlingame, Calif.); gp100 HMB45 from DakoCytomation (Carpinteria, Calif.) and then visualized with goat anti-mouse FITC-conjugated secondary antibody from Invitrogen (Fredrick, Md.). The level of EGFP was determined by flow cytometry of unfixed cells that were washed and resuspended in 1×PBS.
# (§5) Cells were plated at a density of 1×10^5 in 1 ml of medium in a 24-well plate and cultured for varying times as indicated in results. Typically, 3 days of culture in the presence of Hsp90 inhibitors was optimal for the functional studies performed. After incubation, cells were collected by trypsinization and then evaluated by flow cytometry.
# as §1, §2, §3
# [6] = test system: A375 melanoma cell line; test: as above; conditions: for MHC Class I, geometric mean of surface staining (W6/32): 17-AEP 0.5, PU-H71 0.15, CCT018159 2.5
# Experimental: as §4, §5, §1, §2, §3
# [7] = test system: U-87 MG glioma cell line; test: Antibody staining and flow cytometry (intracellular gp100; surface MHC Class I)
# Experimental: as §4, §5, §1
# [8] = 4 day IFN-β pre-treatment (5000 Units/ml), then 3 days with fresh IFN-β, with PU-H71 0.3 mg/ml where labelled (label IFN-β: no inhibitor)
# [9] = 4 day IFN-β pre-treatment (5000 Units/ml), then 3 days without IFN-β, with PU-H71 0.3 mg/ml where labelled (label IFN-β: no inhibitor)
# [10] = single agent for 3 days, no IFN-β pre-treatment, IFN-β 5000 Units/ml, PU-H71 0.3 mg/ml
# [11] = three days, IFN-β 5000 Units/ml, PU-H71 0.075-0.3 mg/ml
# [12] = three days, IFN-β 5000 Units/ml, IFN-γ 100 ng/ml, PU-H71 0.3 mg/ml
# [13] = 3 days, IFN-beta 5000 Units/ml, 17-AEP 1.0, PU-H71 0.3, CCT018159 10.0 μg/ml
# [14] = IFN-β 5000 IU/ml for three days
# [15] = 3 days, IFN-beta 5000 Units/ml, 17-AEP 0.5, PU-H71 0.15, CCT018159 2.5 μg/ml
# [16] = U-87 MG, 3 days, IFN-beta 5000 Units/ml, 17-AEP 0.5, PU-H71 0.3, CCT018159 5.0 μg/ml
molecule,measurement,setting,value
B1,"Class I MHC, geometric mean of surface staining (W6/32)",[1]; [8],208
same,"Class I MHC, geometric mean of surface staining (W6/32)",[1]; [9],165
same,L243 (MHC Class II surface staining),[1]; single agent,10.3
same,W6/32 (MHC Class I surface staining),[1]; single agent,368.2
same,"Class I MHC, geometric mean of surface staining (W6/32)",[1]; [10],62
same,"MHC Class I, geometric mean of surface staining (W6/32)",[1]; [11],62
same,L243 (MHC Class II surface staining),[2]; single agent,1.9
same,W6/32 (MHC Class I surface staining),[2]; single agent,290.3
same,"MHC Class I, geometric mean of surface staining (W6/32)",[2]; [12],82
same,"MHC Class II, geometric mean of surface staining (L2443)",[2]; [12],4
same,"MHC Class I, geometric mean of surface staining (W6/32)",[2]; [11],180
same,L243 (MHC Class II surface staining),"[3]; HELA, single agent",5.2
same,W6/32 (MHC Class I surface staining),"[3]; HELA, single agent",370.8
same,"Class I MHC, geometric mean of surface staining (W6/32)","[3]; HeLa, 4 day IFN-β pre-treatment (5000 Units/ml), then 3 days with fresh IFN-β, with PU-H71 0.3 where labelled (label IFN-β: no inhibitor)",107
same,"Class I MHC, geometric mean of surface staining (W6/32)","[3]; HeLa, 4 day IFN-β pre-treatment (5000 Units/ml), then 3 days without IFN-β, with PU-H71 0.3 where labelled (label IFN-β: no inhibitor)",120
same,"Class I MHC, geometric mean of surface staining (W6/32)","[3]; HeLa, single agent for 3 days, no IFN-β pre-treatment, IFN-β 5000 Units/ml, PU-H71 0.3",126
same,"MHC Class II, geometric mean of surface staining (L2443)","[3]; HeLa, three days, IFN-β 5000 Units/ml, IFN-γ 100 ng/ml, PU-H71 0.3 mg/ml",8
same,"MHC Class I, geometric mean of surface staining (W6/32)","[3]; HeLa, three days, IFN-β 5000 Units/ml, IFN-γ 100 ng/ml, PU-H71 0.3",240
same,"MHC Class I, geometric mean of surface staining (W6/32)","[3]; HeLa, three days, IFN-β 5000 Units/ml, PU-H71 0.075-0.3",185
same,"Class I MHC, geometric mean of surface staining (W6/32)",[4]; [8],61
same,"Class I MHC, geometric mean of surface staining (W6/32)",[4]; [9],63
same,L243 (MHC Class II surface staining),[4]; single agent,129.8
same,W6/32 (MHC Class I surface staining),[4]; single agent,81
same,"Class I MHC, geometric mean of surface staining (W6/32)",[4]; [10],102
same,"MHC Class I, geometric mean of surface staining (W6/32)",[4]; [12],81
same,"MHC Class II, geometric mean of surface staining (L2443)",[4]; [12],278
same,"MHC Class I, geometric mean of surface staining (W6/32)",[4]; [11],28
same,"Class I, fold increase relative to untreated control",[5]; [13],1.5 fold
same,"Class I, geometric mean of surface staining (W6/32)",[5]; [13],158
same,"MART-1, fold increase relative to untreated control",[5]; [13],1.4 fold
same,"MART-1, geometric mean of intracellular staining",[5]; [13],18
same,"TRP-2, fold increase relative to untreated control",[5]; [13],1.3 fold
same,"TRP-2, geometric mean of intracellular staining",[5]; [13],55
same,"gp100, fold increase relative to untreated control",[5]; [13],1.8 fold
same,"gp100, geometric mean of intracellular staining",[5]; [13],46
same,"MHC Class I, geometric mean of surface staining (W6/32)","[5]; 4 day IFN-β pre-treatment (5000 Units/ml), then 3 days with fresh IFN-β and the labelled HSP90 inhibitor (label IFN-β: no inhibitor), 17-AEP 1, PU-H71 0.3, CCT018159 10 mg/ml",499
same,"MHC Class I, geometric mean of surface staining (W6/32)","[5]; 4 day IFN-β pre-treatment (5000 Units/ml), then 3 days without IFN-β with the labelled HSP90 inhibitor (label IFN-β: no inhibitor), 17-AEP 1, PU-H71 0.3, CCT018159 10 mg/ml",207
same,"MART-1, geometric mean of intracellular staining using anti-MART-1",[5]; [14],18
same,"MHC Class I, geometric mean of surface staining (W6/32)","[5]; single agent for 3 days, no IFN-β pre-treatment, IFN-β 5000 Units/ml, 17-AEP 1 μg/ml, PU-H71 0.3 μg/ml, CCT018159 10 μg/ml",388
same,"MHC Class I, geometric mean of surface staining (W6/32)","[5]; three days, IFN-β 5000 Units/ml, 17-AEP 1 μg/ml, PU-H71 0.3 μg/ml, CCT018159 10 μg/ml",158
same,"Class I, fold increase relative to untreated control",[6]; [15],2.3 fold
same,"Class I, geometric mean of surface staining (W6/32)",[6]; [15],84
same,"MART-1, fold increase relative to untreated control",[6]; [15],1.3 fold
same,"MART-1, geometric mean of intracellular staining",[6]; [15],8
same,"TRP-2, fold increase relative to untreated control",[6]; [15],1.5 fold
same,"TRP-2, geometric mean of intracellular staining",[6]; [15],24
same,"gp100, fold increase relative to untreated control",[6]; [15],1.1 fold
same,"gp100, geometric mean of intracellular staining",[6]; [15],17
same,"MHC Class I, geometric mean of surface staining (W6/32)","[6]; 4 day IFN-β pre-treatment (5000 Units/ml), then 3 days with fresh IFN-β and the labelled HSP90 inhibitor (label IFN-β: no inhibitor)",99
same,"MHC Class I, geometric mean of surface staining (W6/32)","[6]; 4 day IFN-β pre-treatment (5000 Units/ml), then 3 days without IFN-β with the labelled HSP90 inhibitor (label IFN-β: no inhibitor)",42
same,"MART-1, geometric mean of intracellular staining using anti-MART-1",[6]; [14],9
same,"MHC Class I, geometric mean of surface staining (W6/32)","[6]; single agent for 3 days, no IFN-β pre-treatment, IFN-β 5000 Units/ml",87
same,"MHC Class I, geometric mean of surface staining (W6/32)","[6]; three days, IFN-β 5000 Units/ml",84
same,"Class I, fold increase relative to untreated control",[7]; [16],2.7 fold
same,"Class I, geometric mean of surface staining (W6/32)",[7]; [16],73
same,"gp100, fold increase relative to untreated control",[7]; [16],1.4 fold
same,"gp100, geometric mean of intracellular staining",[7]; [16],36
same,"MHC Class I, geometric mean of surface staining (W6/32)","[7]; U-87 glioma, three days, IFN-β 5000 Units/ml, PU-H71 0.075-0.3",138
